Tested on: Xenografts derived from NSCLC cell lines with high levels of DTD
Conditions: NSCLC (high DTD) vs SCLC (low DTD) derived xenografts

With CO[C@@]12[C@H](COC(N)=O)C3=C(C(=O)C(C)=C(N)C3=O)N1C[C@@H]1N[C@@H]12 [Mitomycin C] the “susceptibility of xenografts to cytotoxic effects” value was “more susceptible”.

— US20070203109A1, “Compounds And Compositions For Treatment Of Cancer” (priority 2004, published 2007)
